The numbers were not newly measured in patent US10016389B2, “Method of making liposomes, liposome compositions made by the methods, and methods of using the same” (LivOn Laboratories, priority 2011, dated 2018), which cites them from elsewhere.

The conditions of this series: humans.

R-(+)-lipoic acid [R-LA]: the oral dose absorbed is 30-40%.
